Assay results published in ChEMBL document CHEMBL1157011, “8-Sulfonyl-substituted tetrahydro-1H-pyrido[4,3-b]indoles as 5-HT6 receptor antagonists” (Eur J Med Chem, 2010).

The chains behind the UniProt entries cited, without tags or fusion partners.
UniProt P50406, whole entry: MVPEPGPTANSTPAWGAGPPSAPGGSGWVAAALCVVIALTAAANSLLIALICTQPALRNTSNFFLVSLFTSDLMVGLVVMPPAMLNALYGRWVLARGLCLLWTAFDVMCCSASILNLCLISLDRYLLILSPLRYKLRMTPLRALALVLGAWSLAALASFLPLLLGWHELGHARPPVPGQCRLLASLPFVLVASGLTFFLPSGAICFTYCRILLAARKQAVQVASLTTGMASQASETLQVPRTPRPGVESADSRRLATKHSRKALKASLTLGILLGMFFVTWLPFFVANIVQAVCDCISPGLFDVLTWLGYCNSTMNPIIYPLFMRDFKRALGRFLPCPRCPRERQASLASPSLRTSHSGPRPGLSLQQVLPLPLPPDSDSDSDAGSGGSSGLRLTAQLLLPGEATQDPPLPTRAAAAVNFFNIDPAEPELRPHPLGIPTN

Target: 5-hydroxytryptamine receptor 6 (Homo sapiens, UniProt P50406)
Assay: Antagonist activity at human recombinant 5HT6 receptor expressed in HEK293 cells assessed as inhibition of serotonin-induced cAMP production by LANCE assay relative to serotonin
Type: functional, cell-based
How it was run: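 HEK-293 cells with a tetracycline-inducible (T-Rex) human 5-HT6 receptor, grown in DMEM/10% FBS with blasticidin S and zeocin and induced with tetracycline the day before. Medium was swapped for HBSS with 1 mM MgCl2, 1 mM CaCl2, IBMX and 5 mM HEPES, pH 7.4. Compounds (0.1% DMSO) were added 15 min at RT, then 10 nM serotonin for 30 min. cAMP read by LANCE; 2 independent experiments in duplicate.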

CN1CCc2c(c3cc(S(C)(=O)=O)ccc3n2C)C1.Cl
Imax: 100%
